Biological target: LRRK2 G2019S (Homo sapiens, UniProt Q5S007, G2019S)
Test: LRRK2 G2019S Km ATP LanthaScreen assay
Assay type: biochemical

By UniProt entry, the sequences of proteins in these tests, tags left out.
UniProt Q5S007, whole entry G2019S: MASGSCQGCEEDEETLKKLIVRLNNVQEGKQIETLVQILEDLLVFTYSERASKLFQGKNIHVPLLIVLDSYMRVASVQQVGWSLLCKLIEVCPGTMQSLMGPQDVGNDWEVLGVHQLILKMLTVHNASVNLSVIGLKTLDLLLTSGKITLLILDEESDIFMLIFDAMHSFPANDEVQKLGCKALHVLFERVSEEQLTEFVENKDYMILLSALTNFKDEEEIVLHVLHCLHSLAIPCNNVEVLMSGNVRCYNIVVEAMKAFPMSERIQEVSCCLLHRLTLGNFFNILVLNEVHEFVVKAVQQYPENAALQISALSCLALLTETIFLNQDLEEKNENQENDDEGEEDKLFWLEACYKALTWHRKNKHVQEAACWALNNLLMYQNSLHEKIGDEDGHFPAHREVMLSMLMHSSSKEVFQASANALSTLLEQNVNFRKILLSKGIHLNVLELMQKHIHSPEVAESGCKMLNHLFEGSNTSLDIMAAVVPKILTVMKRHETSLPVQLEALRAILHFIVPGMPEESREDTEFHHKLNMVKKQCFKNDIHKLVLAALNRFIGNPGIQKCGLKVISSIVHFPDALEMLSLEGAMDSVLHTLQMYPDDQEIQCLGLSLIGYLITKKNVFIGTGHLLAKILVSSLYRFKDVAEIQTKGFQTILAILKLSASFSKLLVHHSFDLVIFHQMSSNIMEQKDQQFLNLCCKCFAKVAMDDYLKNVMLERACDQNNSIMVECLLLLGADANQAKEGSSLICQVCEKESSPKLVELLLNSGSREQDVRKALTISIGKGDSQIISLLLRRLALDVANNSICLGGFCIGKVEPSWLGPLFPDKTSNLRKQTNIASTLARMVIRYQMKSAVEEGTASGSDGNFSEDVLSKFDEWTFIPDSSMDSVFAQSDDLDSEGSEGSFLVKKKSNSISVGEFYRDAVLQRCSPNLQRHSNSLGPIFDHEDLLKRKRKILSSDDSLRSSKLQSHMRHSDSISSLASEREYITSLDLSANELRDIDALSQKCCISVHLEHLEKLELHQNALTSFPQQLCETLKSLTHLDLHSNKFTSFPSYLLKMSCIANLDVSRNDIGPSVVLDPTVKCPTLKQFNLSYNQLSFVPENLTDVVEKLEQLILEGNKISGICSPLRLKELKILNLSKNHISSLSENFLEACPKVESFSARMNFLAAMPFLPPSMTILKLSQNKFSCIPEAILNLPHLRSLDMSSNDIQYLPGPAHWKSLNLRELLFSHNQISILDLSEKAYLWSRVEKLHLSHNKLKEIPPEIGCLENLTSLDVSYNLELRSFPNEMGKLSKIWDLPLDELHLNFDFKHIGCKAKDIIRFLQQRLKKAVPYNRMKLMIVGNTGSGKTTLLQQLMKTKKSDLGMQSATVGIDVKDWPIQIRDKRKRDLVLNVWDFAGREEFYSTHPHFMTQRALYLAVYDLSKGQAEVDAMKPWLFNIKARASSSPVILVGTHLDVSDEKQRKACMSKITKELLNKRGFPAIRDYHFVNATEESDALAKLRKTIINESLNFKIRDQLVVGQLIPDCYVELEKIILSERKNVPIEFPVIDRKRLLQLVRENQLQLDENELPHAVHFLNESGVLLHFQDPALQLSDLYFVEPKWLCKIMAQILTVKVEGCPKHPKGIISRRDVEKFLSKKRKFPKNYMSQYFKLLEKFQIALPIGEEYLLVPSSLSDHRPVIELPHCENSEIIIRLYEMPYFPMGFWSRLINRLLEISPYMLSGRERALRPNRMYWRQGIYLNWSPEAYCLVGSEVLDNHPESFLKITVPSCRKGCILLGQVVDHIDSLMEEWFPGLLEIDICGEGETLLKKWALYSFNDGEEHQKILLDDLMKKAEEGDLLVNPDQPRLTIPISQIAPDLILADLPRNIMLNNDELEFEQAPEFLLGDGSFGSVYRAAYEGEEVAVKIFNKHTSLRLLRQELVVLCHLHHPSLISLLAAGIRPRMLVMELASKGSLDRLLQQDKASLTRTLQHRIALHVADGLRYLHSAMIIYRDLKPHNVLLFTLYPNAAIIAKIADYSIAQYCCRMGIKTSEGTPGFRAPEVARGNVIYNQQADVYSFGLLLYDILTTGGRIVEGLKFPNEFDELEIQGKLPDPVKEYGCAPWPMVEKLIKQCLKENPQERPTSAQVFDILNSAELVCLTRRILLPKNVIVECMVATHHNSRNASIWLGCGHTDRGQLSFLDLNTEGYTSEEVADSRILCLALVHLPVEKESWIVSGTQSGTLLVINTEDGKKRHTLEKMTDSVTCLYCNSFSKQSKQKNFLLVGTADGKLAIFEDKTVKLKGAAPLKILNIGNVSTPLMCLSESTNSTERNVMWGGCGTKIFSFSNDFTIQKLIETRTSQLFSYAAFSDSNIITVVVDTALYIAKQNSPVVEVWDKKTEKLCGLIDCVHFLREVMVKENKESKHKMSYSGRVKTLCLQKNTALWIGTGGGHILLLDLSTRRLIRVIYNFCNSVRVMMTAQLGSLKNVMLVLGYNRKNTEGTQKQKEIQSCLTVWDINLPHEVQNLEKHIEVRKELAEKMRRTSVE

| Structure (SMILES) | LRRK2 pIC50 |
| --- | --- |
| CC(C(=O)Nc1cc2cc(C3CCN(C4(C)COCC4O)CC3)c(Cl)cc2cn1)C1CCOCC1 (stereo not drawn) | 8.14 |
| CC1(N2CCC(c3cc4cc(NC(=O)C5CC5C(F)F)ncc4cc3Cl)CC2)COCC1O (stereo not drawn) | 7.87 |
| CC(C(=O)Nc1cc2cc(C3CCN(C4(C)COCC4O)CC3)c(Cl)cc2cn1)C1CC1 (single isomer, unassigned) [Ex-2.102] | 9.14 |

Now from value to compound:

| LRRK2 pIC50 | Structure (SMILES) |
| --- | --- |
| 9.00 | CC(C(=O)Nc1cc2cc(C3CCN(C4(C)COCC4O)CC3)c(Cl)cc2cn1)C1CC1 (single isomer, unassigned) [Ex-2.103] |
| 7.42 | CC1CCCC1(C)N1CCC(c2cc3cc(NC(=O)C4CC45CCOCC5)ncc3cc2Cl)CC1 (single isomer, unassigned) [Ex-6.20] |
| 8.02 | CC1CCCC1(C)N1CCC(c2cc3cc(NC(=O)C4CC45CCOCC5)ncc3cc2Cl)CC1 (single isomer, unassigned) [Ex-6.21] |
